Results as given in publication PMC2948019 (PLoS ONE, 2010).

Biological target: the molecule itself
Experiment: SEC-MALS; Superdex 200 with on-line 18-angle light scattering; 25 µM protein injected; 10 mM HEPES pH 7.0, 150 mM NaCl, 1 mM DTT

B1: mDia1 G-DID-DD-CC (residues 67–570) (domain or fragment, mouse, UniProt O08808 67-570, looked up)
chain: GDDPTAQSLQDISDEQVLVLFEQMLVDMNLNEEKQQPLREKDIVIKREMVSQYLHTSKAGMNQKESSRSAMMYIQELRSGLRDMHLLSCLESLRVSLNNNPVSWVQTFGAEGLASLLDILKRLHDEKEETSGNYDSRNQHEIIRCLKAFMNNKFGIKTMLETEEGILLLVRAMDPAVPNMMIDAAKLLSALCILPQPEDMNERVLEAMTERAEMDEVERFQPLLDGLKSGTSIALKVGCLQLINALITPAEELDFRVHIRSELMRLGLHQVLQELREIENEDMKVQLCVFDEQGDEDFFDLKGRLDDIRMEMDDFGEVFQIILNTVKDSKAEPHFLSILQHLLLVRNDYEARPQYYKLIEECVSQIVLHKNGTDPDFKCRHLQIDIERLVDQMIDKTKVEKSEAKATELEKKLDSELTARHELQVEMKKMENDFEQKLQDLQGEKDALDSEKQQITAQKQDLEAEVSKLTGEVAKLSKELEDAKNEMASLSAVVVAPSVSSSAA
notes: mDia1, mouse, residues 67-570 (G-DID-DD-CC); also called N-terminal regulatory fragment; G-DID-DD-CC dimer; source: E. coli BL21(DE3), purified (DEAE sepharose, MonoQ, MonoS, Superdex 200)
- stoichiometry N: 2

B2: mDia1 DID-DD (131–457) (domain or fragment, mouse, UniProt O08808 131-457, looked up)
chain: ESSRSAMMYIQELRSGLRDMHLLSCLESLRVSLNNNPVSWVQTFGAEGLASLLDILKRLHDEKEETSGNYDSRNQHEIIRCLKAFMNNKFGIKTMLETEEGILLLVRAMDPAVPNMMIDAAKLLSALCILPQPEDMNERVLEAMTERAEMDEVERFQPLLDGLKSGTSIALKVGCLQLINALITPAEELDFRVHIRSELMRLGLHQVLQELREIENEDMKVQLCVFDEQGDEDFFDLKGRLDDIRMEMDDFGEVFQIILNTVKDSKAEPHFLSILQHLLLVRNDYEARPQYYKLIEECVSQIVLHKNGTDPDFKCRHLQIDIERLVD
notes: mDia1, mouse, residues 131-457 (DID-DD, lacks the CC region); A selenomethionyl-substituted form was also crystallised for phasing (SeMet #1); also called (DID-DD)2; source: E. coli BL21(DE3), purified (DEAE sepharose, MonoQ, MonoS, Superdex 200)
- stoichiometry N: 2
